Assay outcomes as filed in PubChem.
Shown are actives, neighbours in structure and some others; about 4.2% of the full set was active somewhere.
MC4R antag cAMP – antagonists of human melanocortin 4 receptor (MC4R); P32245; MC4R-expressing cells, MTII-stimulated cAMP, LANCE TR-FRET; inhibition, % at 6.5 µM; 360,000 tested, 0.48% active; AID 540295;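 active = inhibition above its plate's cutoff, the mean of tested wells on that plate plus 3 SD, cut at about 29% in these data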;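 also: 0% = Melanotan II alone and 100% = Melanotan II plus saturating MCL0020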
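Material – human MC4R-expressing U2OS cells · Repeats – no replicates · Detection – TR-FRET with Eu-cAMP and labeled anti-cAMP, 671 nm · Times – compound 30 min, challenge 1 h, detection 1 h · Compound – single nominal compound dose of 6.5 µM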
MC4R barr agon – agonists of human melanocortin 4 receptor (MC4R) beta-arrestin | 360,000 tested, 0.98% active | P32245 | activation, % at 8.9 µM | U2OS MC4R beta-arrestin complementation, luminescence; percent of melanotan II response, DMSO zero;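 active = activation above a per-plate cutoff, the mean activation of sample wells on that plate plus 3 SD, cut at about 8% in these data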
HDAC3 inhib – human HDAC3 inhibition | O15379 | 320,000 tested, 0.15% active | recombinant HDAC3, fluorogenic peptide/trypsin coupled, fluorescence | inhibition, % at 8.3 µM; in the data active = inhibition above about 26%, passing the limit was not always enough; inconclusive = no clear call, values can overlap the other calls
ALR H2O2 inh – inhibitors of human sulfhydryl oxidase ALR; AID 485317; inhibition, % (no concentration beside the values); purified ALR, DTT oxidation, H2O2 HRP-luminol luminescence; hit rate 3.8% among 290,000;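 active means mean and each replicate at 75% or more; inconclusive means only one of the two met; inactive means neither met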;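 further: stock transfer was 7.5 nL into about 7.5 µL; 0% = neutral wells and 100% = wells with inactivated enzyme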
NALP1 inh – inhibitors of NALP1 inflammasome in yeast | S. cerevisiae NALP1/ASC/caspase-1 growth, X-gal OD620, 72 h | inhibition, % at 10 µM | 280,000 tested, 0.61% active | AID 2071; in the data active = inhibition mostly above about 24%, no sharp cut-off; inactive = mostly below about 32%
UUG fidelity – alters start codon recognition fidelity in yeast | S. cerevisiae UUG-firefly luciferase reporter, luminescence/redox ratio | activity score, % at 18.7 µM | hit rate 0.13% among 350,000 | AID 602363;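 active means replicate mean at a twofold rise or more, about +100% in these data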;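 further: firefly luciferase made from a UUG start codon reports start codon fidelity; reporter light over untreated wells divided by growth signal over untreated wells; some hits fall short of that in this replicate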
MC4R barr ag – human MC4R beta-arrestin agonism confirmation; shares compounds with MC4R barr agon; U2OS MC4R beta-arrestin recruitment, luminescence; scaled DMSO 0%, Melanotan II 100%; activation, % at 8.9 µM; 2,400 tested, 31% active;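 active = mean activation across replicates above the hit cutoff set in the earlier primary screen, cut at about 8% in these data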
MOR-DOR barr ag – activates mu-delta opioid heterodimer, MC4R agonist counter-screen. shares compounds with MC4R barr agon. U2OS PathHunter beta-arrestin, beta-gal luminescence; percent of deltorphin B response, DMSO zero. activation, % at 9.2 µM. 2,400 tested, 5.8% active. AID 602194;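 active = mean activation across replicates exceeds the hit threshold derived in the earlier primary screen, cut at about 18% in these data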;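 also: 100% = deltorphin B at 0.9 µM final and 0% = DMSO alone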
* hit, by the source's call; ? = inconclusive; nt = not tested or not shown.

No.	Structure	UUG fidelity	HDAC3 inhib	MC4R antag cAMP	MC4R barr ag
1	COc1cccc(CC2(CO)CCCN(Cc3ccc(C)s3)C2)c1 (stereo not drawn)	nt	-0.2	-0.1	nt
2	COc1cccc(CC2(CO)CCCN(Cc3[nH]c4ccc(C)cc4c3C)C2)c1 (stereo not drawn)	11.0	nt	1.6	19.4*
3	CCc1nc(Nc2cc(OC)ccc2OC)c2oc3ccccc3c2n1	-12.3	1.0	3.4	1.5
4	CCc1nc(Nc2ccccc2OC)c2oc3ccccc3c2n1	-11.0	-3.8	1.1	nt
5	C[C@@H]1CN([C@H](C)CO)C(=O)Cc2cc(NC(=O)CCC(F)(F)F)ccc2O[C@H]1CN(C)C(=O)Nc1ccc(C(F)(F)F)cc1	4.0	nt	nt	nt
6	O=C1COc2ccc(C(=O)COC(=O)c3sc4ccccc4c3Cl)cc2N1	-20.3	2.6	1.7	3.6
7	COc1ccc2c(Cl)c(C(=O)OCC(=O)c3ccc4c(c3)NC(=O)CO4)sc2c1Cl	nt	nt	1.4	nt
8	Cc1cccc(C(C)C)c1NC(=O)COC(=O)c1cccc(S(=O)(=O)N2CCc3ccccc3C2)c1	nt	-11.1	-6.2	8.6*
9	CCc1cccc(CC)c1NC(=O)COC(=O)c1cccc(S(=O)(=O)N2CCc3ccccc3C2)c1	nt	3.4	20.4	nt
10	COc1cc(/C=N/NC(=O)c2sc3nc(C)cc(C)c3c2N)ccc1O	-1.1	-3.1	0.9	1.3

No.	MC4R barr agon	MOR-DOR barr ag	NALP1 inh	ALR H2O2 inh
1	0.3	nt	0.3	nt
2	10.9*	13.9	5.9	-2.6
3	10.2*	3.0	15.4	9.1
4	1.6	nt	6.4	nt
5	nt	nt	nt	nt
6	11.6*	4.2	23.7	-10.6
7	0.6	nt	nt	nt
8	18.2*	7.2	29.4	-9.1
9	-0.3	nt	19.9	-2.3
10	15.9*	3.3	nt	36.7

New compounds follow
No.	Structure	UUG fidelity	HDAC3 inhib	MC4R antag cAMP	MC4R barr ag
11	Cc1cc(C)c2c(N)c(C(=O)Nc3ccccc3Br)sc2n1	-3.2	-1.6	-0.6	-0.1
12	O=C(CCN1C(=O)/C(=C\c2ccccc2)SC1=S)NNC(=O)c1cccnc1	nt	5.4	1.2	5.1
13	COc1ccccc1C(=O)NNC(=O)CCCN1C(=O)/C(=C/c2cccs2)SC1=S	-2.8	3.4	0.3	6.7
14	O=C(CCCN1C(=O)/C(=C\c2cccs2)SC1=S)NNC(=O)c1ccncc1	nt	-7.5	-3.0	nt
15	O=C(CCN1C(=O)/C(=C\c2ccccc2)SC1=S)NNC(=O)c1ccccc1O	-13.0	-9.0	-1.5	3.5
16	O=C(CCCN1C(=O)/C(=C/c2ccccc2)SC1=S)Nc1ccccc1O	nt	?	-2.9	nt
17	CN(C)CC(=O)N1[C@@H]2Cn3c(ccc(C4=CCCC4)c3=O)[C@H]1[C@@H](C(=O)NCC1CC1)[C@@H]2CO	12.2	nt	nt	nt
18	COC(=O)C[C@@H]1C[C@@H]2c3cc(NS(=O)(=O)c4cccc(OC)c4)ccc3O[C@@H]2[C@H](CO)O1	-6.8	nt	nt	nt
19	CCN(Cc1ccccc1)S(=O)(=O)c1ccc(S(=O)(=O)N(Cc2ccccn2)Cc2ccco2)cc1	-19.0	3.3	-2.1	4.4
20	O=C(CSc1ccc(C(F)(F)F)cc1[N+](=O)[O-])Nc1ccc2ccccc2c1	-9.9	-2.8	-0.8	8.1

No.	MC4R barr agon	MOR-DOR barr ag	NALP1 inh	ALR H2O2 inh
11	10.0*	4.9	9.0	-2.8
12	21.1*	0.8	18.2	-7.1
13	22.9*	4.3	15.0	-6.5
14	-0.4	nt	24.5	4.4
15	10.3*	2.8	18.3	0.9
16	6.4	nt	-10.6	2.3
17	nt	nt	nt	nt
18	nt	nt	nt	nt
19	12.9*	2.9	9.1	-9.8
20	11.4*	5.9	22.9	99.1*

Structures above marked active in MC4R barr ag.
nr | Molecule | UUG fidelity | HDAC3 inhib | MC4R antag cAMP | MC4R barr ag | MC4R barr agon | NALP1 inh | ALR H2O2 inh
2 | COc1cccc(CC2(CO)CCCN(Cc3[nH]c4ccc(C)cc4c3C)C2)c1 (stereo not drawn) | 11.0 | nt | 1.6 | 19.4* | 10.9* | 5.9 | -2.6
8 | Cc1cccc(C(C)C)c1NC(=O)COC(=O)c1cccc(S(=O)(=O)N2CCc3ccccc3C2)c1 | nt | -11.1 | -6.2 | 8.6* | 18.2* | 29.4 | -9.1

Continued:
No.	Structure	UUG fidelity	HDAC3 inhib	MC4R antag cAMP	MC4R barr ag
21	C[C@@H]1CCCCO[C@H](CN(C)C(=O)Nc2ccc3c(c2)OCO3)[C@H](C)CN([C@@H](C)CO)C(=O)c2cc(NC(=O)C3CCCCC3)ccc2O1	9.1	nt	nt	nt
22	C[C@H]1CN([C@@H](C)CO)C(=O)c2cccc(NC(=O)C3CC3)c2O[C@@H]1CN(C)Cc1ccc(Cl)c(Cl)c1	5.2	nt	nt	nt
23	Nc1sc(-c2ccccc2)cc1-c1n[nH]c(=S)n1C1CCCCC1	-14.1	1.8	-16.3	6.5
24	COc1ccc(-n2c(-c3cc(-c4ccccc4)sc3N)n[nH]c2=S)cc1	nt	2.0	6.3	nt

No.	MC4R barr agon	MOR-DOR barr ag	NALP1 inh	ALR H2O2 inh
21	nt	nt	nt	nt
22	nt	nt	nt	nt
23	11.1*	8.3	-5.4	97.8*
24	0.0	nt	nt	2.2
